Data as given in PMC12163485 (2025).

Molecular target: T1, human OCT1 (hOCT1) (Homo sapiens, UniProt O15245)
T1 sequence (O15245 1-554): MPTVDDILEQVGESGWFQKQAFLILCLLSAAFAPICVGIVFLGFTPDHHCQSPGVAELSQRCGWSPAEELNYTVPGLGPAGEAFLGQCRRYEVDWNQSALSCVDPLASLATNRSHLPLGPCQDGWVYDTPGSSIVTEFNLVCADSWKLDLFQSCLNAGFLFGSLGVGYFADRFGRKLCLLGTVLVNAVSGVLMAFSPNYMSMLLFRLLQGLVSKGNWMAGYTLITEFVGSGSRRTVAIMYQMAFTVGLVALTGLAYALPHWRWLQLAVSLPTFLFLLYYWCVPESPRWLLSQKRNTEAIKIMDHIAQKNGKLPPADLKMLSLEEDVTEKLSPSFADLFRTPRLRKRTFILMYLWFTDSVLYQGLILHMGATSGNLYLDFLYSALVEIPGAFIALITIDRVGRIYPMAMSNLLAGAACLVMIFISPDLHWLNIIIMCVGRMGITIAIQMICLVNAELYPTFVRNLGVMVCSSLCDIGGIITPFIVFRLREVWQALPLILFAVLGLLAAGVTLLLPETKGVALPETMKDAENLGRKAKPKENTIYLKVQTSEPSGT
Test: Transport kinetics (KM, vmax) of OCT1-mediated uptake, HEK293 cells overexpressing human OCT1
Type: in vitro ADME
Conditions: mean ± SD

## CC(Cc1ccc(O)cc1)NCC(O)c1cc(O)cc(O)c1 (centres unmarked) [Fenoterol, fenoterol]
Substrate tested alone
  vmax: 44.4 ± 10.5 pmol x min^-1 x mg protein^-1
Substrate tested in cocktail
  vmax: 43.9 ± 9.66 pmol x min^-1 x mg protein^-1
